Measured affinities in a library of Ab-14 heavy chain variants

All variants were tested on one target, the spike HR2 peptide PDVDLGDISGINAS (SARS-CoV-2).

The variants keep the light chain, the linker and the frameworks of Ab-14 (scFv order VH, the linker GGGGSGGGGSGGGGS, VL).
VH: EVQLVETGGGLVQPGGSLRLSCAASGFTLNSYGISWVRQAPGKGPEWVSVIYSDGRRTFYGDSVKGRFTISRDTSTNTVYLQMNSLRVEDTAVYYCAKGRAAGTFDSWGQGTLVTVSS
VL: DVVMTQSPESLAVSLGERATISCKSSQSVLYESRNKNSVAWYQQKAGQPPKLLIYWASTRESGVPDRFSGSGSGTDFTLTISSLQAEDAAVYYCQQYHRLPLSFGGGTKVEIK

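The parent was found by panning a naive human phage display library on the peptide. Library AAYL49 holds single substitutions and randomly drawn double and triple substitutions in the CDRs. Affinity was read by AlphaSeq, a pooled yeast mating assay with surface-displayed partners. The frequency of each diploid, read from paired DNA barcodes, reflects how well the two displayed proteins bind. Read counts were normalised to the haploid input and turned into Kd by a linear fit to BCL2-family pairs of known affinity, for each replicate. The assay was run in three technical replicates.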

Positions count from residue 1 of the parent VH; V50K puts K in place of V.
Numbers give log10(Kd / nM), so 0 is 1 nM and 3 is 1 µM. Smaller is tighter.
A mean of the replicates is given; it leaves out those without a signal.
"not detected" means that the variant was in the library but no mating with the target was seen in any replicate; the authors take this as a sign of poor binding, and no number exists.

changes | log10 Kd (nM), mean | detected
V50K+R56H+A102G | 5.10 | 1 of 3
V64P+R100K | not detected | 0 of 3
G33M+K65W+T104H | not detected | 0 of 3
Y60E+G103M+F105V | 4.78 | 1 of 3
S31C+G33I+V64L | 3.77 | 1 of 3
T58A+V64K+D106I | not detected | 0 of 3
N30V+D106F | 1.87 | 3 of 3
G26V+Y60D+S63D | 4.16 | 1 of 3
T28I+A102W | not detected | 0 of 3
T58R+Y60A+T104L | not detected | 0 of 3
F27H+Y52L+D54K | not detected | 0 of 3
I34N+T58R+T104L | 4.17 | 1 of 3
D54M+Y60P+K65F | 3.44 | 1 of 3
V50P+F59V+R100C | not detected | 0 of 3
D62R+S63I+K65H | not detected | 0 of 3
G33L+Y52V+T104V | 3.34 | 1 of 3
V64P+D106I | not detected | 0 of 3
F59L+G99Q+A101M | 4.31 | 2 of 3
A102M+G103E | not detected | 0 of 3
I34W+V50C+F105K | 4.93 | 2 of 3
I34A+D62L+G99Q | not detected | 0 of 3
G26K+S53K+F59H | 4.97 | 3 of 3
G33T+G99R+R100T | not detected | 0 of 3
R56Q+A101P+T104H | 1.80 | 3 of 3
S35N+Y52T+T58L | 4.89 | 3 of 3
F27L+S63M | 3.87 | 1 of 3
S53V+G55D | not detected | 0 of 3
N30S+S35C+D106A | not detected | 0 of 3
I34Q+A101R+D106H | not detected | 0 of 3
L29I+G61R+S63K | 2.49 | 3 of 3
N30R+S31W+Y52T | 3.30 | 1 of 3

The remaining entries, values ahead:

log10 Kd (nM), mean | detected | changes
5.05 | 1 of 3 | I34T+I51H+T104L
not detected | 0 of 3 | G55Q+D62V+S63I
not detected | 0 of 3 | N30Q+S35K+A101Q
not detected | 0 of 3 | S35P+A101D+F105I
not detected | 0 of 3 | G26S+Y32M+I34L
not detected | 0 of 3 | L29C+I34K+Y60G
4.50 | 1 of 3 | S31K+G55Y+A102K
not detected | 0 of 3 | F27G+F59L+Y60F
1.20 | 3 of 3 | F27G+S31T
not detected | 0 of 3 | V50Q+I51P+K65S
1.06 | 3 of 3 | S31N+Y52F+F105E
not detected | 0 of 3 | Y32S+D54T+S107I
not detected | 0 of 3 | V64N+A101K
not detected | 0 of 3 | F27L+I34R+V50T
not detected | 0 of 3 | S31D+S35W+K65T
3.04 | 1 of 3 | L29Y+V50H+F59G
not detected | 0 of 3 | Y52K+Y60R+A102V
not detected | 0 of 3 | F27Y+G55I+Y60N
3.75 | 1 of 3 | I34M+F59K+R100C
not detected | 0 of 3 | G26W+L29P+D106Y
4.38 | 1 of 3 | G26K+V50H+D54M
not detected | 0 of 3 | S63D+T104P+D106A
not detected | 0 of 3 | F27K+S53V+R57P
not detected | 0 of 3 | T58R+V64S+G103P
not detected | 0 of 3 | S31G+Y60L
not detected | 0 of 3 | L29Q+I34M+G99F
1.07 | 3 of 3 | T28E+S53P+R100T
not detected | 0 of 3 | R56E+D62I+T104E
not detected | 0 of 3 | S35I+R100S+G103S
not detected | 0 of 3 | G55S+Y60E+D62C
not detected | 0 of 3 | D62I+A102K+D106I

The first 9 variants above that were never detected:

changes	log10 Kd (nM), mean	detected
V64P+R100K	not detected	0 of 3
G33M+K65W+T104H	not detected	0 of 3
T58A+V64K+D106I	not detected	0 of 3
T28I+A102W	not detected	0 of 3
T58R+Y60A+T104L	not detected	0 of 3
F27H+Y52L+D54K	not detected	0 of 3
V50P+F59V+R100C	not detected	0 of 3
D62R+S63I+K65H	not detected	0 of 3
V64P+D106I	not detected	0 of 3

Empty control strains, which show no peptide, gave a signal in 15% of pairings with library AAYL49; the median was 4.06 and 95% of these signals were weaker than 2.83. No background was subtracted.

Source: Engelhart et al. 2022 (doi:10.1038/s41597-022-01779-4), MIT Lincoln Laboratory and A-Alpha Bio; data file from the FLAb repository.